## Antibody variant affinities, Ab-14 light chain, assay B

The target is the same throughout: PDVDLGDISGINAS, from the HR2 region of SARS-CoV-2 spike.

Ab-14 is the parent antibody, in scFv form: VH, then three GGGGS repeats, then VL. The heavy chain is unchanged in all variants.
VH: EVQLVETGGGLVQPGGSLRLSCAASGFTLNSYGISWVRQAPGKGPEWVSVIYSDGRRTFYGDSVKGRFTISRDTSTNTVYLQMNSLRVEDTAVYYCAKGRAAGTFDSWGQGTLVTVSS
VL: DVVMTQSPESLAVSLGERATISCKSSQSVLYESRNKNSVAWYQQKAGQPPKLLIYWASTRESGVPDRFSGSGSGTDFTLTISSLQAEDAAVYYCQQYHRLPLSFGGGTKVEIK

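The starting antibody came from a phage panning campaign against this peptide. These sequences belong to a second round, designed from the earlier measurements on random variants of the parent. Group labels follow the data file (Ctrl: baseline library sampled from a position-specific scoring matrix, with some repeated check sequences; Rand: our label for a block that the file lists under HC and that is probably the random mutants of the ten best first-round binders; GP: Gaussian process model; GPLM: also part of the Gaussian process libraries; HC: hill climbing; Gen: genetic algorithm; Gibbs: Gibbs sampling; a sequence that several methods proposed may carry one label only). In AlphaSeq, yeast of one mating type display the scFv and yeast of the other type display the target. Binding brings cells together so that they mate, and sequencing counts the barcode pairs among the diploids. Read counts were normalised to the haploid input and turned into Kd by a linear fit to BCL2-family pairs of known affinity, for each replicate. There are six technical replicates.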

Positions count from residue 1 of the parent VL; S25L puts L in place of S.
Variants here have at most six changes.
Kd is apparent (estimated from mating counts) and averaged on the log scale over replicates with a signal. Smaller is tighter.
A pair that was not seen in any replicate is written "no signal"; this usually means weak binding, but a binder can also be missed.
The range of this assay differs from that of the first round, and the authors advise against merging the two.

With S25L S26Y V29N W56N [GP_Gen] the result was 1.0 nM (6 of 6 replicates). For S25I S26E W56N [GP_Gen], the assay gave 390 pM (6 of 6 replicates). With S25I V39I W56N S58N T59Q S62Q [GP_Gibbs] the result was no signal (0 of 6 replicates). With S25L S28Q V29T S62E [GP_HC] the result was 1.5 nM (6 of 6 replicates). For V29G Y31N S38N W56G [Ctrl], the assay gave 570 pM (6 of 6 replicates). The variant S25L V29Q N37W W56N [GP_Gen] showed 1.1 nM (6 of 6 replicates). For S25V N35L W56N [GP_Gen], the assay gave 1.2 nM (6 of 6 replicates).

The variant Q27L V29G W56E [GP_HC] showed 2.8 nM (6 of 6 replicates). The variant S25V V29G E32G N37W W56N S103Q [GP_Gibbs] gave 7.6 nM (6 of 6 replicates). The variant S25L S26D W56H S62D [GP_HC] gave 1.2 nM (6 of 6 replicates). The variant S33G K36S S62I [Ctrl] showed 130 nM (6 of 6 replicates). With Q27I V29G N35Y W56E [GP_HC] the result was 4.6 nM (6 of 6 replicates). The variant K24R Y31V S33E W56S E61T [Ctrl] gave 3.1 nM (6 of 6 replicates). The variant S25L Q96V [Ctrl] showed 300 nM (5 of 6 replicates).

The variant S25V L100M L102Y [Ctrl] gave 200 nM (6 of 6 replicates). For V29K L30M Y31N S103A [Ctrl], the assay gave 180 nM (1 of 6 replicates). The variant S25V S33Q R34G N35T W56N T59S [GP_HC] gave 50 nM (5 of 6 replicates). The variant S25L V29C W56E T59Q [GP_Gen] gave 21 nM (6 of 6 replicates). The variant V29Y L30H N37K W56G [Rand] showed 4.4 nM (6 of 6 replicates). The variant S25L S26E V29Q K36C W56N [GP_Gen] gave 20 nM (6 of 6 replicates). The variant S25L W56N E61L Q96D [GP_Gen] showed 1.0 nM (6 of 6 replicates).

The variant Q27A V29F [Ctrl] gave 30 nM (6 of 6 replicates). For Y31E [Ctrl], the assay gave 35 nM (6 of 6 replicates). The variant S25A Y31F W56D [GPLM_HC] gave 1.4 nM (6 of 6 replicates). The variant V29F N35W W56G T59W P101T [Rand] gave no signal (0 of 6 replicates). With S25L S26N A57G R99H [Ctrl] the result was 6.0 nM (6 of 6 replicates). For S25L S26E V29T W56N H98K [GP_Gibbs], the assay gave 160 nM (5 of 6 replicates). With R34F K36G Y97D [Ctrl] the result was no signal (0 of 6 replicates).

The variant Q27H S33Q Q95N [Ctrl] showed no signal (0 of 6 replicates). The variant S25L Q27D W56G [GP_Gen] showed 530 pM (6 of 6 replicates). The variant E32A W56A [Ctrl] showed 20 nM (6 of 6 replicates). The variant S25L L30P N37A S38Q W56D E61M [GP_Gibbs] gave 18 nM (6 of 6 replicates). The variant S25V Q27E V29D W56E [GP_Gen] showed 1.2 nM (6 of 6 replicates). The variant S25L S26R Q27M V29M W56N [GP_HC] showed 880 pM (6 of 6 replicates). The variant S25Q Q27Y Y31Q W56D [GP_HC] showed 580 pM (6 of 6 replicates).

The variant S25L S33E N35M W56N [GP_Gen] showed 5.6 nM (5 of 6 replicates). For S25L Q27F V29D W56E [GP_Gen], the assay gave 400 pM (6 of 6 replicates). With S25C S103M [Ctrl] the result was 67 nM (6 of 6 replicates). With S25L S26Q V29E W56E S62E [GP_Gen] the result was 640 pM (6 of 6 replicates). With E32Q S38G W56K Y97D [Ctrl] the result was no signal (0 of 6 replicates). The variant S28K S33E H98S [Ctrl] showed 24 nM (6 of 6 replicates). For S25L V29G W56G [GP_Gen], the assay gave 350 pM (6 of 6 replicates).

For K24R Q27P K36H W56S R60C S62F [Ctrl], the assay gave no signal (0 of 6 replicates). With K24H S25L Q27D W56N S103F [GP_HC] the result was 520 pM (6 of 6 replicates). The variant S25V S26P V29G W56E [GP_Gen] gave 2.1 nM (6 of 6 replicates). The variant S28M V29D K36G W56D E61S S62D [GP_Gibbs] gave 1.7 nM (6 of 6 replicates). The variant S25Y V29Y W56N [GP_Gen] showed 1.8 nM (6 of 6 replicates). With Q27W V29H W56D [GP_HC] the result was 780 pM (6 of 6 replicates). The variant S25W Q27C V29Q E32D R34P S62M [GP_Gibbs] gave 19 nM (1 of 6 replicates).

The variant Y31N R34K T59I Q95V S103I [Ctrl] showed 26 nM (6 of 6 replicates).

Excerpt, the first 6 entries:

With S25L S26Y V29N W56N [GP_Gen] the result was 1.0 nM (6 of 6 replicates).
With S25I S26E W56N [GP_Gen] the result was 390 pM (6 of 6 replicates).
With S25I V39I W56N S58N T59Q S62Q [GP_Gibbs] the result was no signal (0 of 6 replicates).
With S25L S28Q V29T S62E [GP_HC] the result was 1.5 nM (6 of 6 replicates).
With V29G Y31N S38N W56G [Ctrl] the result was 570 pM (6 of 6 replicates).
With S25L V29Q N37W W56N [GP_Gen] the result was 1.1 nM (6 of 6 replicates).

The parent sequence was in this pool as ten entries: three were never detected, three once, and four in most replicates, with averages from 2.2 nM to 240 nM.
In the paper, a design with two or fewer of six values counts as a poor binder.
Empty control strains, which show no peptide, gave a signal in 4% of pairings with all light chain designs; the median was 430 nM and 95% of these signals were weaker than 38 nM. No background was subtracted.

Source: Li et al. 2023 (doi:10.1038/s41467-023-39022-2), MIT Lincoln Laboratory and A-Alpha Bio; data file from the FLAb repository.